How the values were obtained:
[1] = test system: non-sedated, non-naïve cynomolgus monkeys; assay: Intravenous infusion in non-sedated, telemeterized non-human primates: blood pressure, heart rate, ECG (Example 2); format: in vivo
Protocol: Peptides were synthesized as in Example 1. The test articles of human α-CGRP, β-CGRP and VSXP325 were supplied as stock solutions and formulated into dosing solutions for intravenous infusions at 0.016 ug/kg/min and 0.024 ug/kg/min. Two non-naïve, telemeterized, male non-human primates (NHP “a” and “b”) were used for the test article(s) dosing regimen. Test articles included α-CGRP, β-CGRP and Peptide V (also known as VSXP325, Structure V, Peptide V, Analog V and Compound V). Following a stabilized baseline period of approximately 30 minutes, one of the test article(s) was administered as an intravenous infusion via a femoral vein vascular access port (VAP) using a Pegasus PCA infusion pump for a period of 30 or 60 minutes. A minimum period of 30 minutes was allotted for the hemodynamic parameters to return to baseline prior to the next test article infusion dose. The process was repeated for each of the stated test articles. The same procedure was followed for the 1 hour infusion with 1 hour allotted for parameters to return to base line.
The non-human primates were previously surgically prepared with telemetry transducers, type TL11M2-D70-PCT (Data Sciences International). The acquisition and analysis was done using a Ponemah (Version 4.8 or higher) data acquisition and analysis system installed on the hard drive of a computer. The computer was equipped with disk drive for file back up on readable write-once only optical media (CD-R or DVD-R).
Prior to the first dose administration, baseline data was acquired. For each subsequent dose, data was collected for approximately 30 min postdose. Prior to the next dose, the hemodynamic parameters were allowed to return to a stable baseline±10%.
Systolic blood pressure (SYS or SBP), diastolic blood pressure (DBP), mean arterial pressure (MAP), heart rate (HR), and all lead II ECG variables were recorded. The telemetry data files were transferred to an Excel (MicroSoft® Version 2003) spreadsheet. The following variables from the lead II ECG were measured: PR interval, QRS duration, QT interval, RR interval, and QTcF interval (calculated as
A visual inspection of the entire collected ECG waveform for disturbances in rhythm and waveform morphology was performed. The data for selected time points were analyzed and assessed on completion of data acquisition and were the average of at least 30 beats (ABP and ECG) of data at the selected analysis time, when possible. The time points for both hemodynamic and ECG data analysis were an initial 30 min baseline prior to the first dose, at a 10 min during each infusion postdose interval relative to end of each infusion, and time points prior to the next test article infusion for each test compound.
This study assessed the cardiovascular effects of the CGRP analog Peptide V (also known as VSXP325, Structure V, Analog V and Compound V) and β-CGRP when compared to the positive control compound human α-CGRP on blood pressure, heart rate, and lead II electrocardiogram in two non-sedated, non-naïve cynomolgus monkeys. Non-human primates were selected because they have the same RAMP 1-CGRP receptor complex as humans.

[2] = test system: sedated Non Human Primate; assay: IV infusion in the sedated Non Human Primate: blood pressure and heart rate (Example 1); format: in vivo
[3] = test system: rats; conditions: cited from earlier work
[4] = NHP a, dose day 1, during 30 minute infusions of 0.016 ug/kg/min
[5] = NHP a, dose day 2, during 30 minute infusions of 0.024 ug/kg/min
[6] = NHP a, dose day 3, during 30 minute infusions of 0.024 ug/kg/min
[7] = NHP a, dose day 3, during 1 hour infusion of 0.024 ug/kg/min
[8] = NHP b, dose day 1, during 30 minute infusions of 0.016 ug/kg/min
[9] = NHP b, dose day 2, during 30 minute infusions of 0.024 ug/kg/min
[10] = NHP b, dose day 3, during 30 minute infusions of 0.024 ug/kg/min
[11] = NHP b, dose day 3, during 1 hour infusion of 0.024 ug/kg/min
[12] = average of a1, b1, during 30 minute infusions of 0.016 ug/kg/min
[13] = average of a 2, b 2, a 3, b 3, during 30 minute infusions of 0.024 ug/kg/min
[14] = average of a3, b3, during 1 hour infusion of 0.024 ug/kg/min

Which “Percent change in HR, a1” value [1, 4] does the source give for “ACDTATCVTHRLAGLLSRSGGVVKNNFVPTNVGSKAF-NH2 [αCGRP]” here?
The value was −4.9%.

And the “Percent change in mean BP, a1” value [1, 4]?
The value was −6.6%.

What about the “Percent change in systolic BP, a1” value [1, 4] of the same substance?
Its value is −9.7%.

And the “Percent change in HR, a 2” value [1, 5]?
The value was −4.2%.

What about the “Percent change in mean BP, a 2” value [1, 5] of the same substance?
The value was −15.2%.

What about the “Percent change in systolic BP, a 2” value [1, 5] of the same substance?
The value was −12.2%.

What about the “Percent change in HR, a 3” value [1, 6] of the same substance?
The value was −14.8%.

What about the “Percent change in mean BP, a 3” value [1, 6] of the same substance?
Its value is −16.0%.

What about the “Percent change in systolic BP, a 3” value [1, 6] of the same substance?
Its value is −11.6%.

And the “Percent change in HR at 30 minutes, a3” value [1, 7]?
The value was −14.8%.

And the “Percent change in HR at 60 minutes, a3 1 hr” value [1, 7]?
The value was 9.3%.

What about the “Percent change in mean systolic BP at 30 minutes, a3” value [1, 7] of the same substance?
The value was −16.0%.

What about the “Percent change in mean systolic BP at 60 minutes, a3 1 hr” value [1, 7] of the same substance?
Its value is −1.0%.

What about the “Percent change in systolic BP at 30 minutes, a3” value [1, 7] of the same substance?
Its value is −11.6%.

What about the “Percent change in systolic BP at 60 minutes, a3 1 hr” value [1, 7] of the same substance?
Its value is −2.3%.

And the “Percent change in HR, b1” value [1, 8]?
The value was −16.3%.

And the “Percent change in mean BP, b1” value [1, 8]?
Its value is −29.8%.

What about the “Percent change in systolic BP, b1” value [1, 8] of the same substance?
The value was −20.3%.

What about the “Percent change in HR, b 2” value [1, 9] of the same substance?
Its value is 6.3%.

What about the “Percent change in mean BP, b 2” value [1, 9] of the same substance?
The value was −25.7%.

And the “Percent change in systolic BP, b 2” value [1, 9]?
The value was −8.1%.

What about the “Percent change in HR, b 3” value [1, 10] of the same substance?
The value was 2.0%.

What about the “Percent change in mean BP, b 3” value [1, 10] of the same substance?
The value was −6.4%.

What about the “Percent change in systolic BP, b 3” value [1, 10] of the same substance?
The value was −1.8%.

And the “Percent change in HR at 30 minutes, b3” value [1, 11]?
Its value is 2.0%.

What about the “Percent change in HR at 60 minutes, b3 1 hr” value [1, 11] of the same substance?
Its value is −1.0%.

What about the “Percent change in mean systolic BP at 30 minutes, b3” value [1, 11] of the same substance?
Its value is −6.4%.

What about the “Percent change in mean systolic BP at 60 minutes, b3 1 hr” value [1, 11] of the same substance?
Its value is −6.8%.

And the “Percent change in systolic BP at 30 minutes, b3” value [1, 11]?
Its value is −1.8%.

And the “Percent change in systolic BP at 60 minutes, b3 1 hr” value [1, 11]?
The value was −10.7%.

What about the “Percent change in mean HR, a 2” value ([1]; Table 14, NHP a, dose day 2, during 30 minute infusions of 0.024 ug/kg/min) of the same substance?
The value was −4.2%.

What about the “Percent change in mean HR, a 3” value ([1]; Table 14, NHP a, dose day 3, during 30 minute infusions of 0.024 ug/kg/min) of the same substance?
The value was −14.8%.

What about the “Percent change in mean HR, b 2” value ([1]; Table 14, NHP b, dose day 2, during 30 minute infusions of 0.024 ug/kg/min) of the same substance?
Its value is 6.3%.

And the “Percent change in mean HR, b 3” value ([1]; Table 14, NHP b, dose day 3, during 30 minute infusions of 0.024 ug/kg/min)?
The value was 2.0%.

And the “Percent change in mean HR, HR” value ([1]; Table 14, average of a 2, b 2, a 3, b 3, during 30 minute infusions of 0.024 ug/kg/min)?
The value was −2.7%.

What about the “Percent change in mean HR, a1” value ([1]; Table 16, NHP a, dose day 1, during 30 minute infusions of 0.016 ug/kg/min) of the same substance?
Its value is −4.9%.

And the “Percent change in mean HR, b1” value ([1]; Table 16, NHP b, dose day 1, during 30 minute infusions of 0.016 ug/kg/min)?
The value was −16.3%.

What about the “Percent change in mean HR, HR” value ([1]; Table 16, average of a1, b1, during 30 minute infusions of 0.016 ug/kg/min) of the same substance?
The value was −10.6%.

And the “Percent change in mean HR at 30 minutes, a3” value ([1]; Table 24, NHP a, dose day 3, during 1 hour infusion of 0.024 ug/kg/min)?
Its value is −14.8%.

What about the “Percent change in mean HR at 30 minutes, b3” value ([1]; Table 24, NHP b, dose day 3, during 1 hour infusion of 0.024 ug/kg/min) of the same substance?
The value was 2.0%.

What about the “Percent change in mean HR at 30 minutes, HR T30” value ([1]; Table 24, average of a3, b3, during 1 hour infusion of 0.024 ug/kg/min) of the same substance?
Its value is −6.4%.

What about the “Percent change in mean HR at 60 minutes, a3 1 hr” value ([1]; Table 25, NHP a, dose day 3, during 1 hour infusion of 0.024 ug/kg/min) of the same substance?
The value was 9.3%.

What about the “Percent change in mean HR at 60 minutes, b3 1 hr” value ([1]; Table 25, NHP b, dose day 3, during 1 hour infusion of 0.024 ug/kg/min) of the same substance?
The value was −1.0%.

What about the “Percent change in mean HR at 60 minutes, HR T60” value ([1]; Table 25, average of a3, b3, during 1 hour infusion of 0.024 ug/kg/min) of the same substance?
Its value is 4.2%.

And the “Percent change in HR, HR” value [1, 12]?
Its value is −10.6%.

And the “Percent change in mean BP, BP” value [1, 12]?
Its value is −18.2%.

And the “Percent change in systolic BP, BP” value [1, 12]?
The value was −15.0%.

What about the “Percent change in HR, HR” value [1, 13] of the same substance?
Its value is −2.7%.

What about the “Percent change in mean BP, BP” value [1, 13] of the same substance?
The value was −15.8%.

What about the “Percent change in systolic BP, BP” value [1, 13] of the same substance?
The value was −8.4%.

What about the “Percent change in HR at 30 minutes, HR T30” value [1, 14] of the same substance?
Its value is −6.4%.

And the “Percent change in HR at 60 minutes, HR T60” value [1, 14]?
Its value is 4.2%.

And the “Percent change in mean systolic BP at 30 minutes, BP T30” value [1, 14]?
Its value is −11.2%.

What about the “Percent change in mean systolic BP at 60 minutes, BP T60” value [1, 14] of the same substance?
Its value is −3.9%.

What about the “Percent change in systolic BP at 30 minutes, T30” value [1, 14] of the same substance?
Its value is −6.7%.

And the “Percent change in systolic BP at 60 minutes, T60” value [1, 14]?
Its value is −6.5%.

What about the “Heart rate (HR) increases” value ([2]; at the 8 ng dose) of the same substance?
Its value is “not”.

What about the “Heart rate (HR) effect” value ([2]; at the 28 ng dose) of the same substance?
The value was “increases were found”.

And the “heart rate and blood pressure effect” value ([3]; 19 ng/kg/min)?
The value was “tachycardia accompanied by a fall in blood pressure”.

And the “hemodynamic effects of infusions, alpha vs beta CGRP” value ([3]; infusions)?
Its value is “more significant hemodynamic effects compared to human beta CGRP”.

Source: patent US20110150980A1, “CGRP ANALOG” (VasoGenix Pharmaceuticals, Inc., priority 2009, published 2011)
